Drawing on patent US20020142016A1, “Stable skin care product containing a retinoid and a retinoid booster system in a dual compartment package” (priority 2000, published 2002), this text covers inhibition for three molecules.

One may read the inhibition as the share of the control response that was lost under treatment. High values mean a strong effect, low ones a weak effect.

The target of the test is T1, LRAT (Bos taurus, UniProt Q9BGL2).
T1 construct: followed by approximately 15 pg of RPE microsomal protein; tissue W. L. Lawson Co., Lincoln, Nebr; host or cells: bovine retinal pigment epithelium microsomes
T1 sequence (Q9BGL2 1-230): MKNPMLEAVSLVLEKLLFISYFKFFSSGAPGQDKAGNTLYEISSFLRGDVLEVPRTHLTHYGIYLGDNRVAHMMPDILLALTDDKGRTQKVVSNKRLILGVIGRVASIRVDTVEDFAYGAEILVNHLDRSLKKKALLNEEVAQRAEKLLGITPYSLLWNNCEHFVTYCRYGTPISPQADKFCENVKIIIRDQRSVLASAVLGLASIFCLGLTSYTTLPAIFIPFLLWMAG
The experiment in a line: Assay for LRAT activity in RPE microsomes. The test is classed as biochemical, bovine. As to conditions: 100 μm compound.
Molecule `CC(C)=CCCC(C)CCO` (stereo not drawn) [Citronellol] came in with an inhibition at 100 µM of 0%.

In turn, `CCCCCCCCCCCCCCCC(=O)NCCO` [Palmitamide-MEA] came in with an inhibition at 100 µM of 33%. As for `C[C@H]1[C@H](C)CC[C@]2(C(=O)O)CC[C@]3(C)C(=CC[C@@H]4[C@@]5(C)CC[C@H](O)C(C)(C)[C@@H]5CC[C@]43C)[C@H]12` [Urosolic Acid], the figure is 28%.
